These results are taken from patent US20260263413A1, “FORMULATIONS OF DIHYDROMYRICETIN AND A PERMEABILIZER” (priority 2019, published 2026).

Like-named read-outs stand apart in the source and are kept apart here.

A short description of series [1]: Pharmacokinetic (PK) data from oral administration of DHM in enteric capsules, with or without sodium caprate. The class given is in vivo, Sprague-Dawley rats. Conditions: rat, relative to IV AUC of Example 1.
The conditions of series [2]: Sprague-Dawley, rat, in vivo, po.

As for `O=C1c2c(O)cc(O)cc2O[C@H](c2cc(O)c(O)c(O)c2)[C@H]1O` [DHM, dihydromyricetin], the “DHM Bioavailability (Fabs)” value in series [1] (70.6±2.7 mg/kg crystalline DHM, sodium caprate approx. 141.2 mg/kg (2:1), FIG. 3D) is reported as 51.7±10.0; in series [1] (75.5±2.0 mg/kg crystalline DHM, sodium caprate approx. 75.5 mg/kg (1:1), FIG. 3C) it was 32.4±3.1; in series [1] (92.6±3.0 mg/kg crystalline DHM, sodium caprate approx. 23.2 mg/kg (1:4), FIG. 3B), 20.4±3.6; in series [2], 52.8±12.3.
